This note sets out measurements from ChEMBL document CHEMBL1153994.

Amino acid sequences for entries named in this document (tags omitted). A change or cut given only in a name is not applied to a line headed by its entry.
UniProt O14939: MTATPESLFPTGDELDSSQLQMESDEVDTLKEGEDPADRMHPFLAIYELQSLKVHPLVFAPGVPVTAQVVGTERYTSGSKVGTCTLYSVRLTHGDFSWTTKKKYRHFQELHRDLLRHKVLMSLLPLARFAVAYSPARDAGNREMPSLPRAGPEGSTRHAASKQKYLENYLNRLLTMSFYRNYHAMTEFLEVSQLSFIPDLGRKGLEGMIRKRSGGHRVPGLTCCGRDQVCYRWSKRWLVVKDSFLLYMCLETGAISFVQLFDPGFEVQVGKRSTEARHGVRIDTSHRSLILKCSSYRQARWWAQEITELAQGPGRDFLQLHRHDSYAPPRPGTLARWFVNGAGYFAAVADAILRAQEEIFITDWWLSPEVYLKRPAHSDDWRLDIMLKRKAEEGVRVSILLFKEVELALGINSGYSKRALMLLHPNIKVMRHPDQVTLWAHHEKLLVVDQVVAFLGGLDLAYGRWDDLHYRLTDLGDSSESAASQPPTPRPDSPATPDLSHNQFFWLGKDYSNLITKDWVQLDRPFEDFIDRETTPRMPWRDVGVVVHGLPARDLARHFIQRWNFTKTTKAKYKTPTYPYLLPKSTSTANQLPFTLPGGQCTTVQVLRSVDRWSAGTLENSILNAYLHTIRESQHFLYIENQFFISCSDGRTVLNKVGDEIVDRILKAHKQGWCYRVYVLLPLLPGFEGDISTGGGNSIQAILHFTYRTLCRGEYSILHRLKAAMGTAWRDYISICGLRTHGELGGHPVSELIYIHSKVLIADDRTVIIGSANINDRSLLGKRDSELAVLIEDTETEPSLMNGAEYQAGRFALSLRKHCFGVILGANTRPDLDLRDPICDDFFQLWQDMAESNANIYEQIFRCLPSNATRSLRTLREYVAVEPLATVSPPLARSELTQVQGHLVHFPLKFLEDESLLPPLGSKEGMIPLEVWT

One test deals with HEK293. The experiment in a line: Selectivity for PLD1 in human Calu1 cells over GFP-labeled PLD2 in human HEK293 cells. In kind it is cell-based.
A further test addresses T1, Phospholipase D1 (Homo sapiens, UniProt Q13393).
T1 sequence (Q13393 whole entry): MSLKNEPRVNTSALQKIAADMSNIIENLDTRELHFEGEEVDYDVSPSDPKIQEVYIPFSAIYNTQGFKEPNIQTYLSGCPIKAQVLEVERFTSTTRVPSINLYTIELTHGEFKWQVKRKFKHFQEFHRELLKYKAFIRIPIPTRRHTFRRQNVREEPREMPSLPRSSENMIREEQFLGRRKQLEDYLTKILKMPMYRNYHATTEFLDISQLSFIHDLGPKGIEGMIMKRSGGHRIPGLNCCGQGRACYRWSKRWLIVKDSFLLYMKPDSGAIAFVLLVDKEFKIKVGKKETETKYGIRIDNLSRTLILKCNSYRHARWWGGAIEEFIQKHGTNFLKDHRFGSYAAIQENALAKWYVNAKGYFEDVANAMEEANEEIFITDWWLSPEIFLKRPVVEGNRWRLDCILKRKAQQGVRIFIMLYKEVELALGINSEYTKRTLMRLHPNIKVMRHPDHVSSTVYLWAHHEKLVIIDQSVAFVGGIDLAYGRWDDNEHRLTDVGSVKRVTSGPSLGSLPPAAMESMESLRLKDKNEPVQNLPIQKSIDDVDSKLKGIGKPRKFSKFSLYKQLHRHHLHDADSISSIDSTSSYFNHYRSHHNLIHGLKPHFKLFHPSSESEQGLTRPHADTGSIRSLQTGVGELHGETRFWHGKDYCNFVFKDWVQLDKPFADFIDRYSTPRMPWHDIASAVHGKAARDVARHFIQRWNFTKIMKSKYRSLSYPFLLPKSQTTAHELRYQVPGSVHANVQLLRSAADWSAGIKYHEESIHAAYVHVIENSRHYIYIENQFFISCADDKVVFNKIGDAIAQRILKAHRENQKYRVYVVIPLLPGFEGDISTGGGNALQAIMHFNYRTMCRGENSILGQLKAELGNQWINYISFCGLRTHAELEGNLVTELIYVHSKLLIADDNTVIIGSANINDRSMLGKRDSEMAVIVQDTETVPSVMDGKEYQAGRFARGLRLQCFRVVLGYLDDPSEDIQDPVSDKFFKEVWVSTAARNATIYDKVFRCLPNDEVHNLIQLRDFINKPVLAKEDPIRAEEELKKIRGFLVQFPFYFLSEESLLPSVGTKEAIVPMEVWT
The experiment in a line: Inhibition of PLD1 in human Calu1 cells. It counts as cell-based, Calu-1.

A further test concerns the target Phospholipase D2 (Homo sapiens, UniProt O14939). In words: Inhibition of GFP-labeled PLD2 in human HEK293 cells. In kind it is cell-based.

`C[C@@H](CN1CCC(n2c(=O)[nH]c3cc(Br)ccc32)CC1)NC(=O)[C@H]1C[C@@H]1c1ccccc1`: in the test with HEK293, the fold change (FC) was more than 1700.

`C[C@@H](CN1CCC2(CC1)C(=O)NCN2c1ccccc1)NC(=O)c1ccc2ccccc2c1`: the IC50 on Phospholipase D1 came out at 25 nM; against Phospholipase D2, 140 nM.

The IC50 is the concentration that gives 50% inhibition.
